PMC7253723, “Chain-End Modifications and Sequence Arrangements of Antimicrobial Peptoids for Mediating Activity and Nano-Assembly” (Frontiers in Chemistry, 2020)

What was measured:
[1] = Critical aggregation concentration (CAC) Nile red fluorescence assay; assay type: physicochemical; conditions: Nile red fluorescence (~10 nM NR in water), lipopeptoids 2.5 × 10^-2 to 1 wt.%, excitation 552 nm, peak around 610 nm, room temperature; inflection in emission intensity
Method: Nile red (NR) fluorescence was used to measure critical aggregation concentration (CAC) for the synthesized lipopeptoids. Lipopeptoids were dissolved at 2.5 × 10^−2 to 1 wt.% in a dilute solution of Nile red (0.25 μg/100 mL, i.e. ~10 nM concentration) prepared in water. NR was excited at 552 nm and emission was recorded at room temperature in the range 550–750 nm using a 10.0 × 5.0 mm^2 quartz cell (Jasco spectrofluorimeter FP-6500). The intensity of the peak centered around 610 nm is shown in the data presented in Section results and discussion.
We first examined with a CAC assay whether coupling a hydrophobic tail to AMPMs and inserting the kk and EG2 components is a viable design for generating self-assembling lipopeptoids. The CAC measures the concentration above which hydrophobic pockets (e.g., lipophilic cores of micelles) are formed, and lower CACs indicate higher propensities of self-assembly. In our experiments, the CAC is indicated by an inflection in the increase in emission intensity of a lipophilic fluorophore tracer (Nile Red) that emits more strongly when partitioned into hydrophobic lower dielectric environments (see Figure S6 for an example analysis).

[2] = test system: Escherichia coli (ATCC 25922); assay type: cell-based
Method: (§1) Technical triplicates (n = 3) or more of samples at each concentration were analyzed.

[3] = test system: Staphylococcus aureus (NCTC 4135); assay type: cell-based
Method: as §1

[4] = Analytical RP-HPLC elution (ACN %) as measure of hydrophobicity; assay type: physicochemical; conditions: chromatographic, C18 column (250 × 4.6 mm Nucleosil), 30 min gradient 5–95% ACN in water with 0.1% TFA, 1 mL/min, used as measure of hydrophobicity
Method: Peptoids were synthesized on resin manually or with an automated synthesizer (Prelude X, Gyros Protein Technologies) using a solid phase “submonomer” approach (Zuckermann et al., [1992]; Lau, [2014]; Lau et al., [2017]). Briefly, the Fmoc protected rink amide resin was deprotected with 20% piperidine for 20 min, applied twice. Each residue was added by treatment to a mixture of bromoacetic acid (20 times excess) and diisopropyl-carbodiimide (18.5 times excess) for 15 min, followed by a halo-substitution reaction with appropriate primary amine submonomers. For the attachment of a di ethylene glycol linker, Fmoc-amino-3,6 dioxaoctanoic acid (1.8 mmol), and equivalent moles of HBTU ((2-(1H-benzotriazol-1-yl)-1,1,3,3-tetramethyluronium hexafluorophosphate) were reacted with the terminal amino group in the presence of N,N-diisopropylethylamine (DIPEA, 2.7 mmol). This reaction was carried out for 2 h at 37°C and repeated a second time for 4 h, to ensure coupling. Like resin Fmoc deprotection, EG2 N-terminal Fmoc deprotection was achieved using 20% piperidine for 20 min, applied twice. Different chain lengths of saturated fatty acids, i.e., pelargonic acid (C8), lauric acid (C11), and palmitic acid (C15) were subsequently coupled using the HBTU amide coupling as reported previously (Lau et al., [2017]). […]

[5] = test system: Pseudomonas aeruginosa (PA01); assay type: cell-based
Method: as §1

Row | SMILES | CAC [1] [µM] | Antimicrobial activity (MIC) E. coli [2] [µM] | Antimicrobial activity (MIC) S. aureus [3] [µM] | elution ACN % (RP-HPLC retention) [4] [ACN %] | Hydrodynamic radius RH (DLS) [nm] | Antimicrobial activity (MIC) P. aeruginosa [5] [µM]
1 | CCCCCCCCC(=O)NCCOCCOCC(=O)N(CCCCN)CC(=O)N(CC(=O)N(CC(=O)N(CCCCN)CC(=O)N(CC(=O)N(CC(=O)N(CCCCN)CC(=O)N(CC(=O)N(CC(=O)N(CCCCN)CC(=O)N(CC(=O)N(CC(=O)N(CCCCN)CC(=O)N(CCCCN)CC(N)=O)[C@@H](C)c1ccccc1)[C@@H](C)c1ccccc1)[C@@H](C)c1ccccc1)[C@@H](C)c1ccccc1)[C@@H](C)c1ccccc1)[C@@H](C)c1ccccc1)[C@@H](C)c1ccccc1)[C@@H](C)c1ccccc1 [C8-EG2-(kss)4-kk] | 290 ± 14 | 2 ± 0.3 | 2 ± 0.1 | 48 | 30 | –
2 | CCCCCCCCCCCC(=O)NCCOCCOCC(=O)N(CCCCN)CC(=O)N(CC(=O)N(CC(=O)N(CCCCN)CC(=O)N(CC(=O)N(CC(=O)N(CCCCN)CC(=O)N(CC(=O)N(CC(=O)N(CCCCN)CC(=O)N(CC(=O)N(CC(=O)N(CCCCN)CC(=O)N(CCCCN)CC(N)=O)[C@@H](C)c1ccccc1)[C@@H](C)c1ccccc1)[C@@H](C)c1ccccc1)[C@@H](C)c1ccccc1)[C@@H](C)c1ccccc1)[C@@H](C)c1ccccc1)[C@@H](C)c1ccccc1)[C@@H](C)c1ccccc1 [C11-EG2-(kss)4-kk] | 270 ± 31 | 7 ± 0.1 | 2 ± 0.2 | 55 | – | 14 ± 1
